Measured values published in patent publication US9540379B2 (priority 2011, dated 2017).

By UniProt entry, the sequences of proteins in these tests, tags left out. Chains listed by the source or under a name are the forms on record and can include a tag or linker.
UniProt Q9Y233, other isoform, or with tags, fused parts or gaps: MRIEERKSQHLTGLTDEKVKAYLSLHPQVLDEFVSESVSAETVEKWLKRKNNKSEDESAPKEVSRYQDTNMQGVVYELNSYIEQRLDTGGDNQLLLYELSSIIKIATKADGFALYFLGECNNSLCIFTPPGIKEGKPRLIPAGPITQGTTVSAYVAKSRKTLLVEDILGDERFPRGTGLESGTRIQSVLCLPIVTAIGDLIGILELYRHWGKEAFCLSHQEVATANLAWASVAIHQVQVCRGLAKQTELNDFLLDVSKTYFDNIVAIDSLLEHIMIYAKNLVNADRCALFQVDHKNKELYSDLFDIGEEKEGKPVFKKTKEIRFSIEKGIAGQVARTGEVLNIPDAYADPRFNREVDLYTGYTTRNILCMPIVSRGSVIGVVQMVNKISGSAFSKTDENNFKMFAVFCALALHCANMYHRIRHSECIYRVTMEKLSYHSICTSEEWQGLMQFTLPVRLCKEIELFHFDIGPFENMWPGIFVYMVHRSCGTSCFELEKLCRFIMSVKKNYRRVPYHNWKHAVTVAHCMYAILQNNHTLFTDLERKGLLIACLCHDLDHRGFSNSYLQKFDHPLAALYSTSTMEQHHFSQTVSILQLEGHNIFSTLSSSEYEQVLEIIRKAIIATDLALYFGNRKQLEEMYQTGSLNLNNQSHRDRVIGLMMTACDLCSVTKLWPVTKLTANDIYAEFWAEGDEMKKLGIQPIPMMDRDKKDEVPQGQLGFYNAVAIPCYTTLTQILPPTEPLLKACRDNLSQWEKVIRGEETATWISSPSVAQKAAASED

Biological target: PDE10A (Homo sapiens (Human), UniProt Q9Y233)
Settings: read-out: Inhibition of PDE10A, IC50

Substance	IC50
4-Methyl-1-(3-methyl-pyridin-4-yl)-[1,2,4]triazolo[4,3-a]quinoxaline [Example 39]	930 nM
1-(2-Chloro-5-methoxy-phenyl)-4-methyl-[1,2,4]triazolo[4,3-a]quinoxaline [Example 38]	300 nM
1-[2-Fluoro-5-(4-phenoxy-butoxy)-phenyl]-4-methyl-[1,2,4]triazolo[4,3-a]quinoxaline [Example 42]	> 1000 nM
